This data set is described as follows: Toxicity observed in the viral infectivity assay. Particulars: up to 100 μM; quenched by reaction with Tris. It counts as cell-based. How it is done: To control for possible non-specific effects of the PEG moiety, mono(NHS-ester)PEG was reacted with PIE7 to generate PEG-PIE7. […] Therefore, the improved potency of the dimers cannot be attributed to an interaction of the PEG with virus, cells, or the D-peptide, but is a genuine avidity effect caused by two D-peptides binding to the N-trimer. As a final control, the crosslinking reagent itself (quenched by reaction with Tris) is non-toxic up to 100 μM in this assay.
All studies were done using the HXB2 strain unless otherwise specified. Viral infectivity was measured essentially as previously described (Hamburger 2005) with several modifications. 8 μg/mL DEAE-Dextran was used as a fusion enhancer in all assays. Media was changed 22-26 h following infection. IC50 values were calculated by fitting normalized data to the following equation: y=1/(1+[inhibitor]/IC50). Fits were weighted by the absolute s.e.m. from quadruplicate points with the minimum allowable error set to 1%.

In the case of “Bis-dPEG9™ NHS ester [crosslinking reagent]”, the Toxicity entry is given as “non-toxic”.

(Values after patent publication US10512665B2, “Methods and compositions related to inhibition of viral entry” (University of Utah Research Foundation, priority 2007, dated 2019).)
